Target: T1, Nitric oxide synthase, inducible (Mus musculus, UniProt P29477)
T1 sequence (P29477 whole entry): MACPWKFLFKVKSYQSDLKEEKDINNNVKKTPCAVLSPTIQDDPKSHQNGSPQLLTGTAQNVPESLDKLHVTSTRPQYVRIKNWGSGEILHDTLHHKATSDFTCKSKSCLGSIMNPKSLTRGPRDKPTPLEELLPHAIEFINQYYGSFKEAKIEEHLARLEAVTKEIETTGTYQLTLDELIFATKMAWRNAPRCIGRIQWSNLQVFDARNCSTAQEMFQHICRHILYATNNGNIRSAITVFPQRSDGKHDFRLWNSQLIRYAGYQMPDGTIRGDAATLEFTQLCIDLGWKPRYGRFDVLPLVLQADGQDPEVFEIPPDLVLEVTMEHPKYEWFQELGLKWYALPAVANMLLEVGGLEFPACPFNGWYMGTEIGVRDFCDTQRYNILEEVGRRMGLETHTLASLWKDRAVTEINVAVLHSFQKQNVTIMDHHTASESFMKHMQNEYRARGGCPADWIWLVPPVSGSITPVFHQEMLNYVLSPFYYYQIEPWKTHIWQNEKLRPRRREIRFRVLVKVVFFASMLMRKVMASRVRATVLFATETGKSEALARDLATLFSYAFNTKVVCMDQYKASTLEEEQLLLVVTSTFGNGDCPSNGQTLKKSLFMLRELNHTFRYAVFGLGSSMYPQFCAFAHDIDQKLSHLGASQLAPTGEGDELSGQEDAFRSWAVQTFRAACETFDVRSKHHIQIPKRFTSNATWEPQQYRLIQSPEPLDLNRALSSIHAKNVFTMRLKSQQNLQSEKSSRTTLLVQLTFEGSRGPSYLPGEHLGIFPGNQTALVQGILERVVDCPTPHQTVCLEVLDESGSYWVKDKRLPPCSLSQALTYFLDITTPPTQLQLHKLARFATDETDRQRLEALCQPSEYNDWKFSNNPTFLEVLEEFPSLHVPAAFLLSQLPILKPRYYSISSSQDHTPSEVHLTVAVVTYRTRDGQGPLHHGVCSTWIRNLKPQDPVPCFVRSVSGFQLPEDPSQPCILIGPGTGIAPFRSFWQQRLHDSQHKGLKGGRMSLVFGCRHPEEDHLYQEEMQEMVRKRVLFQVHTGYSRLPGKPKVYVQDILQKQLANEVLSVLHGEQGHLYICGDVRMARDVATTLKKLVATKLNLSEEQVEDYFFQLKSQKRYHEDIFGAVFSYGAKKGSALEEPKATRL
Experiment: Inhibition of iNOS-mediated nitric oxide production in LPS-stimulated mouse BV2 cells measured after 24 hrs of post-stimulation by Griess reaction method
How it was run: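 Murine BV2 microglia in DMEM with 5% FBS were given compound at 1–50 µM and stimulated with LPS 0.5 µg/mL. Nitrite accumulated in the medium was measured by Griess reagent 24 h after stimulation. L-NAME was the positive control. IC50 given as mean ± SEM of three experiments on different days using cells from different passages.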

## COC(=O)[C@@H](N)CCCNC(N)=N[N+](=O)[O-]
  IC50: 13.3 µM

Source: BindingDB's records for doi:10.1016/j.ejmech.2011.10.026 (National Cheng Kung University, 2012)
